Assay results reported in patent US10104882B2, “Methods and compositions for preventing and treating electrophile-mediated toxicities” (priority 2013, dated 2018).
Entries after “also recorded” stand apart in the source; their conditions may differ.

Test system: male C57 BL mice
Experiment: Mouse model of oral acetaminophen (APAP) overdose hepatotoxicity/lethality
Format: in vivo
Method: FIG. 5. Effects of i.p. 2-ACP (2.40 mmol/kg) or equimolar N-acetylcysteine (NAC) on oral acetaminophen (APAP) (500 mg/kg)-induced hepatotoxicity in mice (n=15-30/group). Kaplan-Meier survival curves illustrate the cumulative percent daily lethality in the APAP alone, APAP/NAC and APAP/ACP groups. Joining line indicates statistically significant differences in treatment groups at ***p<0.001 level of significance.
FIG. 6A-6B. (A). Dose-dependency of i.p. 2-ACP (0.80-2.40 mmol/kg) on oral acetaminophen (AAP or APAP) (500 mg/kg)-induced lethality. (B). Dose-dependency of i.p. NAC (2.40-7.20 mmol/kg) on oral APAP-induced lethality. Kaplan-Meier survival curves illustrate the cumulative percent daily lethality in the APAP alone, APAP/NAC and APAP/ACP groups (n=15 mice/group). Joining line indicates statistically significant differences in treatment groups at ***p<0.001 and **p<0.01 levels of significance.
FIG. 7A-7B. Temporal-dependency of i.p. 2-ACP (A) (2.40 mmol/kg) or equimolar NAC (B) on oral APAP (500 mg/kg)-induced lethality. Hepatoprotectants were administered 20 mins before (−20), 20 mins after (+20) or 60 mins after (+60) APAP intoxication. Kaplan-Meier survival curves illustrate the cumulative percent daily lethality in the APAP alone, APAP/NAC and APAP/ACP groups (n=15 mice/group). Joining line indicates statistically significant differences in treatment groups at **p<0.01 and *p<0.05 levels of significance.
To test this premise, experimental groups (n=15-30/group) of fasted male C57 BL mice were administered equimolar i.p. doses of either 2-ACP or NAC (PEG400/PBS vehicle) at 20 minutes prior to acute oral (gavage) overdose of AAP (500 mg/kg)^14. A separate group received the PEG400 vehicle 20 mins prior to AAP. […] Vehicle control mice (n=10) received sequential injections of PEG400 (i.p. followed by oral). At several times post-AAP administration (2, 6, 24, 48 and 168 hrs), groups of mice were anesthetized in a carbon dioxide chamber and heparinized blood samples were collected. Samples were centrifuged and resulting serum was retained for analyses (see below). Livers were also excised, weighed and tissue samples were collected for histopathological evaluation. Remaining tissue was snap frozen in liquid nitrogen. Hepatotoxicity was determined by quantification of serum alanine aminotransferase (ALT) and aspartate aminotransferase (AST) using colorimetric assays. Serum lactate dehydrogenase (LDH) was also measured as an index of generalized AAP-induced organ toxicity. To evaluate the extent of cellular oxidative stress in liver homogenates, the unsaturated aldehyde by-products of lipid peroxidation, HNE and malondialdhyde (MDA), were determined according to a modification of the Gerard-Monnier et al. method^27. In addition, soluble thiol contents were measured in homogenates according to LoPachin et al.^44.

CC(=O)N[C@@H](CS)C(=O)O [NAC, N-acetylcysteine]
protection from APAP-induced lethality (survival) (i.p. 2.40 mmol/kg, 20 min after (+20) APAP): not protective | protection from APAP-induced lethality (survival) (i.p. 2.40 mmol/kg, 20 min before oral APAP 500 mg/kg, 7 day period): ineffective; also recorded: not protective | protection from APAP-induced lethality (survival) (i.p. 2.40 mmol/kg, 60 min after (+60) APAP): partially improved the survival | biochemical indices of hepatocyte death (plasma ALT, AST, LDH) and oxidative stress (liver thiol loss, unsaturated aldehyde content) (i.p. pretreatment, oral APAP): but not NAC, prevented APAP-induced liver cell death | histopathology: liver centrilobular necrosis (i.p. pretreatment, oral APAP): did not stop this damage | dose-dependency of protection from APAP-induced lethality (i.p. pretreatment, 2-ACP 0.80-2.40 mmol/kg, NAC 4.80-7.20 mmol/kg): not protective and instead accelerated the rate of APAP lethality | protection from APAP-induced lethality (survival) (oral gavage 2.40 mmol/kg, 20 min before oral APAP): complete protection
